Test results: patent US4000147A, “Anhydro-2-mercapto-1,3,4-thiadiazolium hydroxides” (BASF Aktiengesellschaft, priority 1974, dated 1976)

Key:
in vivo = details: mouse
Experimental: The comparative experiments in Table 3 were carried out with anhydro-2-mercapto-4-methyl-5-(3'-chlorophenyl)-1,3,4-thiadiazolium hydroxide, referred to as substance A in the Table and in the subsequent text.

[1] = system: maximum Pentetrazol-induced extension; test: maximum tonic extension spasm after subcutaneous administration of 121 mg/kg of Pentetrazol (Table 3); assay type: in vivo, mice; details: in words
maximum electric shock = test: maximum tonic electro-induced cramp (Table 3); assay type: in vivo, mice; details: in words

## O=C1NC(=O)C(c2ccccc2)(c2ccccc2)N1 [Phenytoin]
In vivo
  LD50: 360 mg/kg
[1]
  activity in tonic cramp induced by Pentetrazol, relative to substance A: about twice as active
Maximum electric shock
  activity in cramp induced by electric shock, relative to substance A: about twice as active
